Sequences of proteins named here, by UniProt entry; tags and fusion partners are left off. Residues count along the entry.
UniProt P05030, whole entry: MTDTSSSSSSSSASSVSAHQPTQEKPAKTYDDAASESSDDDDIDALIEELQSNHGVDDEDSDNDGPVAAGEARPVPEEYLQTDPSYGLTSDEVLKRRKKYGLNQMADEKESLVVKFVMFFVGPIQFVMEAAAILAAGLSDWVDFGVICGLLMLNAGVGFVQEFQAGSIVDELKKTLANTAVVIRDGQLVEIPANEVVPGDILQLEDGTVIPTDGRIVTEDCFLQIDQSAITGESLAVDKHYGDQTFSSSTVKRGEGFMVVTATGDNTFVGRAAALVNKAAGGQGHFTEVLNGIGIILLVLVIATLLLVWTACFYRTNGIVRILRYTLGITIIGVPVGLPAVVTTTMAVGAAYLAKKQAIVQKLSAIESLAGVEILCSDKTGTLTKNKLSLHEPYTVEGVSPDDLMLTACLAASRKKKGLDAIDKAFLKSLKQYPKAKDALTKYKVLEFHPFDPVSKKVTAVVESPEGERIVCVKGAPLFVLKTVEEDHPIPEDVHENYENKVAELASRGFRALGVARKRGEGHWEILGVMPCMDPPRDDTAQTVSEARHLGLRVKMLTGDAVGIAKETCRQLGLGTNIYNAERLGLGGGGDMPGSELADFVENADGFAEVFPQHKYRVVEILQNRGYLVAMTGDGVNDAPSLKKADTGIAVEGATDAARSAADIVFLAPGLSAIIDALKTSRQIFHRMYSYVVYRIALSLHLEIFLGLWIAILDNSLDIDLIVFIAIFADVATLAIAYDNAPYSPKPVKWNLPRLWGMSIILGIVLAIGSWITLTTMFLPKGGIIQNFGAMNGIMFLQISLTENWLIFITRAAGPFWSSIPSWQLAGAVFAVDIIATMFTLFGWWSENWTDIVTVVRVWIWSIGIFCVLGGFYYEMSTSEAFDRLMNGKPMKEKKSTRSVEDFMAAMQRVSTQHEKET
UniProt P04191, 1-994 isoform 2: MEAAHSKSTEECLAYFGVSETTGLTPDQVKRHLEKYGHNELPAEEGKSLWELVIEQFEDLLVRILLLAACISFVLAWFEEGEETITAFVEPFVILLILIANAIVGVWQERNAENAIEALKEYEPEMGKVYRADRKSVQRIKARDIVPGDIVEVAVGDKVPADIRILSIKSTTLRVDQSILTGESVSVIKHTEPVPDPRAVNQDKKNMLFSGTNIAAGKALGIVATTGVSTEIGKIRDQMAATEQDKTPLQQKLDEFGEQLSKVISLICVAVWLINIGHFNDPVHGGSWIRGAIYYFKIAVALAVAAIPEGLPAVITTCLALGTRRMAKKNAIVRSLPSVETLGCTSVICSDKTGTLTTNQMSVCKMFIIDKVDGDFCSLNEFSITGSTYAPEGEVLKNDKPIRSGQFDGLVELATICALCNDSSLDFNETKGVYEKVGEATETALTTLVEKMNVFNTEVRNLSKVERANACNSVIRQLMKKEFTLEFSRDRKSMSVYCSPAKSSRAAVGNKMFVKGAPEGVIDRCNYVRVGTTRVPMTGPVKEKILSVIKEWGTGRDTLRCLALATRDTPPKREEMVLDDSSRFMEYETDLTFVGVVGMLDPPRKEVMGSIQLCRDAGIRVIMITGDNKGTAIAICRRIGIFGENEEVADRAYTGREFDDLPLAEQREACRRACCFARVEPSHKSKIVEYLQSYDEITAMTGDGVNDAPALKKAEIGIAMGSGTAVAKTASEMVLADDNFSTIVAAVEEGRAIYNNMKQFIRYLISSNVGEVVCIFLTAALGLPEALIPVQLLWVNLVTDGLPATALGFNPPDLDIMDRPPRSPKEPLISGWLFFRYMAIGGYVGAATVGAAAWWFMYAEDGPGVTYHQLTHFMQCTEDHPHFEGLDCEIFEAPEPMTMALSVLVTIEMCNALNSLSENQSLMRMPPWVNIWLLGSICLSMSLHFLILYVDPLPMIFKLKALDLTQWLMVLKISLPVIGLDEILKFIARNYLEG

In publication PMC5749684, “Tetrahydrocarbazoles are a novel class of potent P-type ATPase inhibitors with antifungal activity” (PLoS ONE, 2018):

Key:
[1] = biological target: Saccharomyces cerevisiae Pma1 (Saccharomyces cerevisiae, UniProt P05030); assay: ATP hydrolysis inhibition, S. cerevisiae Pma1; type: biochemical; settings: Table A in S1 File; for IC50: read-out: ATP hydrolysis IC50 S.cerevisiae Pma1 (Table A)
Protocol: The compound libraries were purchased from Enamine Ltd, Ukraine and Chembridge Corp, USA. Library screening was performed in 96 well plates format and each compound was screened in the ATP hydrolysis assay at a final concentration of 20 μM. DMSO was used to determine the maximal ATPase activity and a blank with ATP in absence of Pma1 protein was used to determine the level of spontaneous ATP hydrolysis and used to determine background level. The percentage of compound inhibition was evaluated by subtracting the blank from each data point and normalizing to maximal ATP hydrolysis activity. […] Two-fold dilution plates of the compounds were used to determine Pma1 IC50 and evaluated for fungal growth inhibition against Saccharomyces cerevisiae (baker’s yeast) and Candida albicans (ATCC 90028) in a concentration range of 100 μM to 1.5 μM. Pma1 inhibitory hit compounds (IC50 <20 μM) with antifungal activity on both S. cerevisiae and C. albicans (MIC <100 μM) were re-purchased and re-evaluated to confirm the potency and identity of the compound.
Plasma membranes containing Pma1 were isolated from Saccharomyces cerevisiae RS72 cells containing the full-length cDNA of the S. cerevisiae plasma membrane H^+-ATPase isoform PMA1 under control of the PMA1 promoter as described.
ATPase activity was determined by measuring the amount of liberated phosphate from ATP hydrolysis. The ATPase assay was performed in 96 well plates in a final reaction volume of 60 μL. 0.1–0.2 μg/well of DOC extracted SERCA membrane or the Na^+,K^+-ATPase was used, while 1–2.5 μg/well was used of the Pma1 membrane preparation. Reactions, including protein membrane preparation and various concentrations of exogenously added compounds, were conducted in the following buffers; Pma1 buffer: 17.5 mM MOPS-NaOH pH 7, 7 mM MgSO4, 44 mM KNO3 (vacuolar ATPase inhibitor), 22 mM NaN3 (mitochondrial ATPase inhibitor), 0.22 mM Na2MoO4 (acid phosphatase inhibitor); SERCA buffer: 9 mM MOPS-NaOH pH 7, 2.7 mM MgCl2, 0.1 mM CaCl2 and 72 mM KCl. Na^+,K^+-ATPase buffer: 30 mM MOPS-NaOH pH 7, 40 mM NaCl, 4 mM MgCl2 and 20 mM KCl. […] The amount of liberated phosphate was determined colorimetrically after addition of STOP solution (mixture of L-ascorbic acid, ammonium heptamolybdate tetrahydrate, and HCl to give final concentrations of 65 mM, 2.2 mM, and 189 mM, respectively) with 5 minutes incubation at room temperature (RT) followed by addition of arsenite solution (mixture of NaAsO2, sodium citrate dihydrate, and acetic acid to give final concentrations of 3.1 mM, 28 mM, and 141 mM, respectively). Absorption was measured at 860 nm after additional 30 minutes incubation at RT.

Mammalian SERCA = Mammalian SERCA (Oryctolagus cuniculus, UniProt P04191); assay: ATP hydrolysis inhibition, SERCA; settings: read-out: ATP hydrolysis IC50 SERCA (Table B); Table B in S1 File, rabbit SERCA
From the text: (§1) All membrane batches were validated by determining ATPase activity, pH optimum and orthovanadate sensitivity. Sarco/endoplasmatic reticulum (SR) Ca^2+ ATPase was provided in SR membranes purified by extraction with a low concentration of deoxycholate (DOC) and was kindly provided by Claus E. Olesen and Jesper V. Møller, Aarhus University and prepared as described in [43]. The pig kidney Na^+,K^+-ATPase purification included a mild SDS treatment of isolated microsomes followed by a washing step and was kindly provided by Natalya Fedosova, Aarhus University and prepared as described in [44].
(§2) ATPase activity was determined by measuring the amount of liberated phosphate from ATP hydrolysis. The ATPase assay was performed in 96 well plates in a final reaction volume of 60 μL. […] The amount of liberated phosphate was determined colorimetrically after addition of STOP solution (mixture of L-ascorbic acid, ammonium heptamolybdate tetrahydrate, and HCl to give final concentrations of 65 mM, 2.2 mM, and 189 mM, respectively) with 5 minutes incubation at room temperature (RT) followed by addition of arsenite solution (mixture of NaAsO2, sodium citrate dihydrate, and acetic acid to give final concentrations of 3.1 mM, 28 mM, and 141 mM, respectively). Absorption was measured at 860 nm after additional 30 minutes incubation at RT.

[2] = biological target: Mammalian Na^+,K^+-ATPase (Sus scrofa, UniProt P05024); assay: ATP hydrolysis inhibition, Na+,K+-ATPase; settings: Table B in S1 File, pig Na+,K+-ATPase
From the text: as §1, §2

Question: For `O=C(NC1CCCc2c1[nH]c1ccc(Br)cc21)c1ccccc1F` (stereo not shown), which “ATP hydrolysis IC50 S.cerevisiae Pma1 (Table A)” value [1] is on record?
Answer: The value was “Neither of them inhibited Pma1”.

Question: What about the IC50 [1] of the same molecule?
Answer: The IC50 was greater than 183 µM.

Question: What does the source list for `O=C(NC1CCCc2c1[nH]c1ccc(Br)cc21)c1ccccn1` (stereo not shown)?
Answer: ATP hydrolysis IC50 S.cerevisiae Pma1 (Table A) [1]: Neither of them inhibited Pma1; IC50 [1]: > 183 µM

Question: For `CC1Cc2c([nH]c3cc(Cl)c(F)cc23)C2(N1)C(=O)Nc1ccc(Cl)cc12` (stereo not shown), which IC50 (Mammalian SERCA) is on record?
Answer: The IC50 was 1.07 µM.

Question: What about the “ATP hydrolysis IC50 Na+,K+-ATPase (Table B)” value [2] of the same molecule?
Answer: Its value is “less potent”.

Question: What about the IC50 ([2]; read-out: ATP hydrolysis IC50 Na+,K+-ATPase (Table B)) of the same molecule?
Answer: The IC50 was 46.7 µM.
